PubChem AID 2061109: pyroptosis screen in mouse bone marrow macrophages, one dose (5 µM).
Target pathway: NLRP3 inflammasome, triggered by LPS and nigericin. Dead cells counted by propidium iodide.
Higher is more protection: 100% equals untreated cells, 0% the stimulated control, negative values set to 0. Active call (*): above 70%. Part of the library is listed.

{"SMILES": "Cc1cc(COc2ccc([C@]3(N)CCN([C@H](CC(C)C)C(=O)NO)C3=O)cc2)c2ccccc2n1", "inhibition [%]": "0.0"}
{"SMILES": "Nc1ccc(C(=O)Nc2ccc(C(F)(F)F)cc2)cc1", "inhibition [%]": "29.2"}
{"SMILES": "CCOC(=O)C1=C(COCCN)NC(C)=C(C(=O)OC)C1c1ccccc1Cl", "inhibition [%]": "13.6"}
{"SMILES": "CCCc1ccc(O)c(-c2cc(CCC)ccc2O)c1", "inhibition [%]": "67.5"}
{"SMILES": "O=C(OCCO)c1ccc(NS(=O)(=O)c2cccc(-c3cc(F)ccc3O)c2)cc1O", "inhibition [%]": "0.0"}
{"SMILES": "COc1nc(N(CC(C)(C)F)c2cc(Cl)c(F)cc2F)cnc1C(=O)[C@H]1C[C@@H]1C(=O)O", "inhibition [%]": "0.0"}
{"SMILES": "O=C(Nc1ccc(-n2nc(C(F)(F)F)cc2OC(F)F)cc1)c1ccncc1F", "inhibition [%]": "13.5"}
{"SMILES": "CCN(CC)CCOc1ccc(Cc2ccccc2)cc1.O=C(O)/C=C/C(=O)O", "inhibition [%]": "38.3"}
{"SMILES": "Cc1cc2ncnn2cc1Nc1ncc2c(n1)n(C1CCOCC1)c(=O)n2C", "inhibition [%]": "0.0"}
{"SMILES": "O=C(c1c(O)c2ccc(Cl)cc2[nH]c1=O)C1CC1", "inhibition [%]": "26.4"}
{"SMILES": "C=C(C)C(=O)Nc1cccc(-c2ncnc3[nH]cc(C(=O)OCC)c23)c1", "inhibition [%]": "0.0"}
{"SMILES": "O=C(O)c1sc2cc(Cl)ccc2c1Cl", "inhibition [%]": "0.0"}
{"SMILES": "CS(=O)(=O)O.CS(=O)(=O)O.Cc1nn(-c2ccnc(Nc3ccc4c(c3)c(C(=O)C3CC3)cn4C)n2)cc1CN1C[C@H](O)CO1", "inhibition [%]": "77.1*"}
{"SMILES": "C/C=C(/C)C(=O)O[C@H]1C(C)=C2[C@H]([C@@H]1OC(=O)CCCCCCC)[C@@](C)(OC(C)=O)C[C@H](OC(=O)CCC)[C@@]1(O)[C@H]2OC(=O)[C@@]1(C)O", "inhibition [%]": "0.0"}
{"SMILES": "CN(C(=O)Oc1nsnc1N1CCOCC1)C1CCCCCCC1", "inhibition [%]": "27.8"}
{"SMILES": "COc1ncc(-c2ccc3c(Nc4cc(Oc5cc(F)cc(F)c5)cc(C(=O)O)c4)c(S(=O)(=O)NC4CC4)cnc3c2)c(OC)n1", "inhibition [%]": "67.3"}
{"SMILES": "O=c1[nH]ncc(N2CCc3c(ncnc3Oc3ccc(F)cc3C(F)(F)F)C2)c1Cl", "inhibition [%]": "0.0"}
{"SMILES": "CNc1nc(Nc2cn(C(C)(C)C#N)nc2C)ncc1C(F)(F)F", "inhibition [%]": "43.1"}
{"SMILES": "C#Cc1cccc(Nc2ncnc3cc(OC)c(NC(=O)N4CCN(CC)CC4)cc23)c1.O=C(O)CCC(=O)O", "inhibition [%]": "4.9"}
{"SMILES": "COc1cc(C(=O)NS(=O)(=O)c2ccccc2C)ccc1Cc1cn(C)c2ccc(NC(=O)OC3CCCC3)cc12", "inhibition [%]": "0.0"}
{"SMILES": "C[C@H](Nc1ccc(C#N)n(C)c1=O)c1cc2cc(Cl)ccc2[nH]c1=O", "inhibition [%]": "67.4"}
{"SMILES": "CC(C)Nc1nc(N)c(C(=O)c2ccccc2)s1", "inhibition [%]": "66.1"}
{"SMILES": "Nc1cncc(-c2cn3ccnc3c(Nc3ccc(N4CCN(C5COC5)CC4)cc3)n2)n1", "inhibition [%]": "15.3"}
{"SMILES": "C/C1=C\\CC[C@@]2(C)O[C@@H]2[C@H]2OC(=O)[C@H](CN(C)C)[C@@H]2CC1", "inhibition [%]": "53.9"}
{"SMILES": "Nc1ccc(Sc2nc3ccccc3s2)c(Cl)c1", "inhibition [%]": "0.0"}
{"SMILES": "O=c1oc2ccccc2cc1[N+](=O)[O-]", "inhibition [%]": "35.5"}
{"SMILES": "CS[C@@]1(C(=O)Nc2ccc3[nH]nc(-c4ccc(OC(C)C)nc4)c3c2)CCN(CC(=O)N2CC=C(c3ccc(-c4ncn(C)n4)cc3)CC2)C1", "inhibition [%]": "78.7*"}
{"SMILES": "CC(C)(C)c1ccc(S(=O)(=O)N=C2C=C(SCC(=O)O)C(=O)c3ccccc32)cc1", "inhibition [%]": "0.0"}
{"SMILES": "CCC(C)(C)C(=O)N(O)Cc1ccccc1", "inhibition [%]": "72.3*"}
{"SMILES": "Cn1ncnc2c(=O)n(C)c(=O)nc1-2", "inhibition [%]": "66.7"}
{"SMILES": "CC(Oc1cc(NS(=O)(=O)N2CCC2)nc(SCc2cccc(F)c2F)n1)C(O)CO", "inhibition [%]": "0.0"}
{"SMILES": "Cc1nc2c(O[C@H]3CCOc4cc(F)cc(F)c43)cc(C(=O)N(C)C)cc2[nH]1", "inhibition [%]": "0.0"}
{"SMILES": "COc1ccc(S(=O)(=O)N=C2C=CC=CC2=CC=C2C=CN(O)C=C2)cc1", "inhibition [%]": "0.0"}
{"SMILES": "CCOc1ccc2nc3cc(N=Nc4ccc(N)nc4N)ccc3c(N)c2c1", "inhibition [%]": "30.2"}
{"SMILES": "C[C@@H]1COCCN1c1cc(=O)n2c(n1)N(Cc1cncc(Cl)c1)[C@H](C(F)(F)F)CC2", "inhibition [%]": "0.0"}
{"SMILES": "COC(=O)c1ccccc1C(=O)c1ccc(OCCN2CCCCC2)cc1.Cl", "inhibition [%]": "78.4*"}
{"SMILES": "COc1ncc(F)cc1CNc1ccc(Cc2c[nH]c3ncc(C)cc23)c(F)n1", "inhibition [%]": "0.0"}
{"SMILES": "C[C@@H]1CN(Cc2ccc(F)cc2)[C@@H](C)CN1C(=O)c1cc2c(C(=O)C(=O)N(C)C)cn(C)c2cc1Cl", "inhibition [%]": "54.7"}
{"SMILES": "C/C=C/C=C/C(=O)O", "inhibition [%]": "0.0"}
{"SMILES": "CC(C)(C)C(=O)Oc1ccc(S(=O)(=O)Nc2ccccc2C(=O)NCC(=O)[O-])cc1.O.O.O.O.[Na+]", "inhibition [%]": "67.5"}
{"SMILES": "CNCCCOc1cc(F)c(-c2c(Cl)nc3ncnn3c2N[C@@H](C)C(F)(F)F)c(F)c1", "inhibition [%]": "7.7"}
{"SMILES": "O=C(c1cn[nH]n1)N1CC2CCC(C1)N2S(=O)(=O)c1cccc(F)c1", "inhibition [%]": "0.0"}
{"SMILES": "CC1=C(CO)C(=O)O[C@@H]([C@@H](C)[C@H]2CC[C@H]3[C@@H]4C[C@H]5O[C@]56[C@@H](O)C=CC(=O)[C@]6(C)[C@H]4CC[C@]23C)C1", "inhibition [%]": "95.4*"}
{"SMILES": "NC(=O)N1CCC(CC(=O)N2CCC([C@H]3c4ncc(Br)cc4CCc4cc(Cl)cc(Br)c43)CC2)CC1", "inhibition [%]": "39.5"}
{"SMILES": "CC1(C)CC[C@]2(C(=O)n3cnc(-c4cccnc4)c3)CC[C@]3(C)[C@H](C(=O)C=C4[C@@]5(C)C=C(C#N)C(=O)C(C)(C)[C@@H]5CC[C@]43C)[C@@H]2C1", "inhibition [%]": "94.7*"}
{"SMILES": "Nc1nc2cc(CC[C@H]3C[C@@H](n4ccc5c(N)ncnc54)[C@H](O)[C@@H]3O)ccc2cc1Br", "inhibition [%]": "45.7"}
{"SMILES": "COc1nn(-c2ccc(NC(=O)OCc3ccccc3)c(C)c2)c(=O)o1", "inhibition [%]": "78.2*"}
{"SMILES": "CCCS(=O)(=O)Nc1ccc(F)c(C(=O)c2c[nH]c3ncc(-c4ccc(Cl)cc4)cc23)c1F", "inhibition [%]": "14.9"}
{"SMILES": "COc1cccc(CN(C(=O)CC(C)(C)C)[C@H]2C[C@@H](C(=O)N3CCNCC3)N(Cc3ccc4c(c3)OCO4)C2)c1", "inhibition [%]": "49.7"}
{"SMILES": "Cc1noc(-c2ccc(-c3ccc(C4(C(=O)O)CC4)cc3)cc2)c1NC(=O)O[C@H](C)c1ccccc1", "inhibition [%]": "31.8"}
{"SMILES": "CN[C@@H]1[C@@H](O)[C@@H](O[C@@H]2[C@@H](O)[C@H](O[C@H]3O[C@H]([C@@H](C)NC)CC[C@H]3N)[C@@H](N)C[C@H]2N)OC[C@]1(C)O.O=S(=O)(O)O", "inhibition [%]": "10.0"}
{"SMILES": "C[C@@H]1O[C@@H](OC[C@H]2O[C@@H](Oc3cc(O)c4c(c3)O[C@H](c3ccc(O)cc3)CC4=O)[C@H](O)[C@@H](O)[C@@H]2O)[C@H](O)[C@H](O)[C@H]1O", "inhibition [%]": "54.0"}
{"SMILES": "O=C(Nc1ccc(Cl)cc1)N1CCN(c2cccc3[nH]ccc23)CC1", "inhibition [%]": "20.7"}
{"SMILES": "COc1ccc(S(=O)(=O)N(CCO)c2ccccc2CN(C)C/C=C/c2ccc(Cl)cc2)cc1.O=P(O)(O)O", "inhibition [%]": "0.0"}
{"SMILES": "CC(Cc1ccc(C(C)(C)C)cc1)CN1CCCCC1", "inhibition [%]": "0.0"}
{"SMILES": "FC(F)(F)c1cc(-c2ncn(/C=C\\c3nnco3)n2)cc(C(F)(F)F)c1", "inhibition [%]": "21.9"}
{"SMILES": "CCc1nn2c(C)cc(C)nc2c1Cc1ccc(-c2nnc(C3CCNCC3)o2)cc1", "inhibition [%]": "66.4"}
{"SMILES": "C[C@H](CC[C@@H](O[C@@H]1O[C@H](CO)[C@@H](O)[C@H](O)[C@H]1O[C@@H]1O[C@H](CO)[C@@H](O)[C@H](O)[C@H]1O)C(C)(C)O)[C@H]1CC[C@@]2(C)[C@H]3CC=C4[C@@H](CC[C@H](O[C@@H]5O[C@H](CO[C@@H]6O[C@H](CO)[C@@H](O)[C@H](O)[C@H]6O)[C@@H](O)[C@H](O)[C@H]5O)C4(C)C)[C@]3(C)[C@H](O)C[C@]12C", "inhibition [%]": "63.9"}
{"SMILES": "Cn1cnc([N+](=O)[O-])c1Sc1ncnc2nc[nH]c12", "inhibition [%]": "1.3"}
{"SMILES": "COC1CCN(C(=O)c2cc(Cc3n[nH]c(=O)c4ccccc34)ccc2F)CC1", "inhibition [%]": "1.0"}
{"SMILES": "CCc1c2c(nc3ccc(OC(=O)N4CCC(N5CCCCC5)CC4)cc13)-c1cc3c(c(=O)n1C2)COC(=O)[C@]3(O)CC", "inhibition [%]": "0.0"}
{"SMILES": "O=C(Nc1ccc(Cl)cc1)c1cc2ccccc2cc1OP(=O)(O)O", "inhibition [%]": "0.0"}
{"SMILES": "CNC(=O)c1cc2c(Oc3ccc(NC(=S)NC(=O)Cc4ccccc4)cc3F)ccnc2cc1OC", "inhibition [%]": "0.0"}
{"SMILES": "CC1(C)CC(=O)c2sc(=Nc3ccccc3)oc2C1", "inhibition [%]": "0.0"}
{"SMILES": "Cc1cc(O)c2c(c1)C(=O)c1cccc(O[C@@H]3O[C@H](CO)[C@@H](O)[C@H](O)[C@H]3O)c1C2=O", "inhibition [%]": "43.7"}

Again, the opening 9 compounds:

SMILES	inhibition [%]
Cc1cc(COc2ccc([C@]3(N)CCN([C@H](CC(C)C)C(=O)NO)C3=O)cc2)c2ccccc2n1	0.0
Nc1ccc(C(=O)Nc2ccc(C(F)(F)F)cc2)cc1	29.2
CCOC(=O)C1=C(COCCN)NC(C)=C(C(=O)OC)C1c1ccccc1Cl	13.6
CCCc1ccc(O)c(-c2cc(CCC)ccc2O)c1	67.5
O=C(OCCO)c1ccc(NS(=O)(=O)c2cccc(-c3cc(F)ccc3O)c2)cc1O	0.0
COc1nc(N(CC(C)(C)F)c2cc(Cl)c(F)cc2F)cnc1C(=O)[C@H]1C[C@@H]1C(=O)O	0.0
O=C(Nc1ccc(-n2nc(C(F)(F)F)cc2OC(F)F)cc1)c1ccncc1F	13.5
CCN(CC)CCOc1ccc(Cc2ccccc2)cc1.O=C(O)/C=C/C(=O)O	38.3
Cc1cc2ncnn2cc1Nc1ncc2c(n1)n(C1CCOCC1)c(=O)n2C	0.0